Experimental data: ChEMBL document CHEMBL1909046, “DrugMatrix in vitro pharmacology data”

By UniProt entry, the sequences of proteins in these tests, tags left out. Where a name states a change or a piece, a line headed by the entry shows the natural chain unless it says otherwise.
UniProt P41145: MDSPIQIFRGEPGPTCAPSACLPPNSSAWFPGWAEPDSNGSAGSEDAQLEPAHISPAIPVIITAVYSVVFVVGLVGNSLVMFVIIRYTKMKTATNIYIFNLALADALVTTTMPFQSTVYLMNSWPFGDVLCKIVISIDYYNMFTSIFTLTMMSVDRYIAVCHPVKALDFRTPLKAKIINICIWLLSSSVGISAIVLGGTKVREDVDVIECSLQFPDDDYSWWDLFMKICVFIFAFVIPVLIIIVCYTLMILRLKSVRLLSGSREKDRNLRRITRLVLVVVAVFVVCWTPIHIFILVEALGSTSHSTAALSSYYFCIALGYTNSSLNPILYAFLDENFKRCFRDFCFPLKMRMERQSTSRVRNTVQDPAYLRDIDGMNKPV
UniProt P35372, whole entry, looked up: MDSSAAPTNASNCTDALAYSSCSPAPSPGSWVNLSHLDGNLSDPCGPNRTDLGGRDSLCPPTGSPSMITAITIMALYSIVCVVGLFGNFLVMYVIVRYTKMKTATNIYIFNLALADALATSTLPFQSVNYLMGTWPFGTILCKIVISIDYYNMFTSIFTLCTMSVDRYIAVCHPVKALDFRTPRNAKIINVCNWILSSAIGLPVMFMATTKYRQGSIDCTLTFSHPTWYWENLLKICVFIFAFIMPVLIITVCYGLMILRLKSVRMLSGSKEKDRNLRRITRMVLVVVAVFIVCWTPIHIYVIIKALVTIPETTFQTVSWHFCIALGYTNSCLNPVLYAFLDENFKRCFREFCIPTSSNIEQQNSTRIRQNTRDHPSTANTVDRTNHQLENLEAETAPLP

Experiments:
[1] = target: Kappa-type opioid receptor (Homo sapiens, UniProt P41145); assay: DRUGMATRIX: Opiate kappa (OP2, KOP) radioligand binding (ligand: [3H] Diprenorphine); settings: hek293
Mu-type opioid receptor = Mu-type opioid receptor (Homo sapiens, UniProt P35372); assay: DRUGMATRIX: Opiate mu (OP3, MOP) radioligand binding (ligand: [3H] Diprenorphine); settings: cho-k1

C=C(C)[C@H]1Cc2c(ccc3c2O[C@@H]2COc4cc(OC)c(OC)cc4[C@@H]2C3=O)O1 [ROTENONE]
Not Active: IC50 [1] | Ki [1] | IC50 (Mu-type opioid receptor) | Ki (Mu-type opioid receptor)

Nc1nc(N)nc(NC2CC2)n1 [CYROMAZINE]
Not Active: IC50 [1] | Ki [1] | IC50 (Mu-type opioid receptor) | Ki (Mu-type opioid receptor)

C[C@]12CC[C@H]3[C@@H](CCC4=CC(=O)CC[C@@H]43)[C@@H]1CC[C@@H]2O
Not Active: IC50 [1] | Ki [1] | IC50 (Mu-type opioid receptor) | Ki (Mu-type opioid receptor)

OC[C@@H](O)[C@@H](O)[C@H](O)[C@H](O)CO
Not Active: IC50 [1] | Ki [1]

O=[As][O-].[Na+]
Not Active: IC50 [1] | Ki [1] | IC50 (Mu-type opioid receptor) | Ki (Mu-type opioid receptor)

C[N+](C)(C)CCOC(=O)CCC(=O)OCC[N+](C)(C)C.[Cl-].[Cl-]
Not Active: IC50 [1] | Ki [1]

O=C(O)C(Cl)(Cl)Cl [TRICHLOROACETIC ACID]
Not Active: IC50 [1] | Ki [1] | IC50 (Mu-type opioid receptor) | Ki (Mu-type opioid receptor)

C[C@@H]1O[C@@H](O[C@H]2C[C@@H](O)[C@]3(CO)[C@H]4[C@H](O)C[C@]5(C)[C@@H](C6=CC(=O)OC6)CC[C@]5(O)[C@@H]4CC[C@]3(O)C2)[C@H](O)[C@H](O)[C@H]1O
Not Active: IC50 [1] | Ki [1] | IC50 (Mu-type opioid receptor) | Ki (Mu-type opioid receptor)

C[C@@]12C(=O)OC(=O)[C@]1(C)[C@H]1CC[C@@H]2O1
Not Active: IC50 [1] | Ki [1] | IC50 (Mu-type opioid receptor) | Ki (Mu-type opioid receptor)
